Assay results published in article PMC11364775, “Ion occupancy of the selectivity filter controls opening of a cytoplasmic gate in the K2P channel TALK-2” (Nature Communications, 2024).
Each block holds one compound with its values, some of them ahead of it.

By UniProt entry, the sequences of proteins in these tests, tags left out.
UniProt Q96T54, whole entry L145C: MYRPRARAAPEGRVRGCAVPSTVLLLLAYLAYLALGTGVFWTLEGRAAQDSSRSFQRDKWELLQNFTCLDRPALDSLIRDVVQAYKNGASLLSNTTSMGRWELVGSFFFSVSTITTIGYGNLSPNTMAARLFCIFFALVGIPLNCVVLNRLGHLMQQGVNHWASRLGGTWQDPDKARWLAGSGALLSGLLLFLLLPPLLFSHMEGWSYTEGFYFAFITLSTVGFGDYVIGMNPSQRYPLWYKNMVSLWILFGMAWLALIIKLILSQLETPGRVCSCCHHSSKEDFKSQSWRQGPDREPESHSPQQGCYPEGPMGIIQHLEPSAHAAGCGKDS
UniProt Q96T54, whole entry Q266C: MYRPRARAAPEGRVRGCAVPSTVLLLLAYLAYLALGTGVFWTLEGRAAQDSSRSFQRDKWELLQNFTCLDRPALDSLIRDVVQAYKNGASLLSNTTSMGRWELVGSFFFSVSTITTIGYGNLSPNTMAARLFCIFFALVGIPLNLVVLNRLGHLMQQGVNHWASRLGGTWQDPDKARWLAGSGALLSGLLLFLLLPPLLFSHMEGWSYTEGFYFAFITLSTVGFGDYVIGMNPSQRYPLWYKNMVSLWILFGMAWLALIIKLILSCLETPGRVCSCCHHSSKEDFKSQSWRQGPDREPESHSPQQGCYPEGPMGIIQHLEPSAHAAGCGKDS
UniProt Q96T54, whole entry L145C/L264A: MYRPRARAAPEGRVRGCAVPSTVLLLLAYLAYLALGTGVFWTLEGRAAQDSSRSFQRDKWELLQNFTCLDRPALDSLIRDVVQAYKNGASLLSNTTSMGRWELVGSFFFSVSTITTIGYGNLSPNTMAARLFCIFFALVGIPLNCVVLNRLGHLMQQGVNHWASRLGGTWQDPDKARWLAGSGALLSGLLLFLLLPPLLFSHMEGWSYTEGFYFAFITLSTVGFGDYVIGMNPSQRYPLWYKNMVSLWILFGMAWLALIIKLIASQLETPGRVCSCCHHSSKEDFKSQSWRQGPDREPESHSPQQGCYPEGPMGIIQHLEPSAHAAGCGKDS
UniProt Q96T54, whole entry L145C/W255A: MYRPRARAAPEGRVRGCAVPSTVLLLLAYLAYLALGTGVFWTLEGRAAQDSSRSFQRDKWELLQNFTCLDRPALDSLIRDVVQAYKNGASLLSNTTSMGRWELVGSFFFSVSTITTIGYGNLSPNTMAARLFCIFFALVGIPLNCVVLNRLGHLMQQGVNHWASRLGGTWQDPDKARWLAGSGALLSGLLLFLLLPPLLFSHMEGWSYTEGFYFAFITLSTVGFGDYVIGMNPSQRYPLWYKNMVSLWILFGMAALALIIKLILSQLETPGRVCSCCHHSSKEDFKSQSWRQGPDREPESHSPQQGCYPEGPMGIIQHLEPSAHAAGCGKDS
UniProt Q96T54, whole entry L145C/L262A: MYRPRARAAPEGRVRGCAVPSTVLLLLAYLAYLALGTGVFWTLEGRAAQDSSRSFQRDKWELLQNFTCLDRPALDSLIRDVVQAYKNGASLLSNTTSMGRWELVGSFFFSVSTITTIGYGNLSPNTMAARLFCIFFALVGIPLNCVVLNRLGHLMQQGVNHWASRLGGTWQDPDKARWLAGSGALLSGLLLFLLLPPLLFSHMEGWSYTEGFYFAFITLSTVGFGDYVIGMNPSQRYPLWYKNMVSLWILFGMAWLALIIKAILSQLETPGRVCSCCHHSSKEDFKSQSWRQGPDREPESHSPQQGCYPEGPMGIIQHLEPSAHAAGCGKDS
UniProt Q96T54, whole entry L145C/V146A: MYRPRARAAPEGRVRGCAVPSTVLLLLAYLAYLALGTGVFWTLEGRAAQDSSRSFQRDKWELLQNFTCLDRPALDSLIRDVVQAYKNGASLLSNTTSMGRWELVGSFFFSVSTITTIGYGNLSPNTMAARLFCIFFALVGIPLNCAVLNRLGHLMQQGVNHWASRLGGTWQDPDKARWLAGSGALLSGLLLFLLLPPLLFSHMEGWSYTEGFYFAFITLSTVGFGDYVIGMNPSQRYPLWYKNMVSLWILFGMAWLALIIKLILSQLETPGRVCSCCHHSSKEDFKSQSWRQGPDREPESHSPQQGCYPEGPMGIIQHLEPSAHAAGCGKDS

Legend:
[1] = target: T1, TALK-2 L145C channels (Homo sapiens, UniProt Q96T54, L145C); test: Cysteine modification assay with MTS-ET (inside-out patch); conditions: for time constant (τ) of MTS-ET modification: 1.0 mM MTS-ET, +40 mV; for Modification rate: TALK-2 L145C
[2] = target: T2, TALK-2 Q266C channels (Homo sapiens, UniProt Q96T54, Q266C); test: Inside-out patch-clamp, ligand activation of channel currents at +40 mV (oocytes)
[3] = target: T1, TALK-2 L145C channels; test: as above
[4] = target: TALK-2 L264A/L145C (Homo sapiens, UniProt Q96T54, L145C/L264A); test: Cysteine modification assay with MTS-ET (inside-out patch); conditions: no ligand activation, +40 mV
[5] = target: TALK-2 W255A/L145C (Homo sapiens, UniProt Q96T54, L145C/W255A); test: as above; conditions: +40 mV, no ligand activation
[6] = target: TALK-2 L262A/L145C (Homo sapiens, UniProt Q96T54, L145C/L262A); test: as above; conditions: +40 mV, no ligand activation
[7] = target: T2, TALK-2 Q266C channels; test: as above; conditions: for time constant (τ) of MTS-ET modification: 1.0 mM MTS-ET
[8] = target: TALK-2 V146A/L145C (Homo sapiens, UniProt Q96T54, L145C/V146A); test: as above; conditions: +40 mV, no ligand activation

tau of modification ([1]; MTS-ET modification in the presence of 5 µM Oleoyl-CoA): 13.49 s | Fold activation 5 µM oleoyl-CoA ([2]; 5 µM): 13.63 fold | Fold activation 5 µM oleoyl-CoA ([3]; 5 µM): 14.99 fold
SMILES: CCCCCCCC/C=C\CCCCCCCC(=O)SCCNC(=O)CCNC(=O)[C@H](O)C(C)(C)COP(=O)(O)OP(=O)(O)OC[C@H]1O[C@@H](n2cnc3c(N)ncnc32)[C@H](O)[C@@H]1OP(=O)(O)O [oleoyl-CoA]

time constant (τ) of MTS-ET modification ([1]; pre-activated with 5.0 μM oleoyl-CoA): 13.5 ± 2.1 s | time constant (τ) of MTS-ET modification ([1]; pre-activated with 1.0 mM 2-APB): 12.3 ± 1.2 s | Modification rate ([1]; voltage 20 mV): 0.022 s⁻¹ | Modification rate ([1]; voltage 40 mV): 0.060 s⁻¹ | Modification rate ([1]; voltage 80 mV): 0.177 s⁻¹ | Modification rate ([1]; voltage 115 mV): 0.233 s⁻¹ | Modification rate ([1]; voltage 140 mV): 0.265 s⁻¹ | effect of MTS-ET on channel activity ([1]; low activity basal state): no effect | time constant (τ) of MTS-ET modification ([4]; 1.0 mM MTS-ET): 0.4 ± 0.1 s | Modification rate ([4]; TALK-2 L264A/L145C): 1.70 s⁻¹ | Modification rate [5]: 0.09 s⁻¹ | Modification rate [6]: 0.13 s⁻¹ | time constant (τ) of MTS-ET modification ([7]; 5.0 μM oleoyl-CoA): 11.5 ± 2.0 s | time constant (τ) of MTS-ET modification ([7]; 1.0 mM 2-APB): 7.1 ± 0.8 s | time constant (τ) of MTS-ET modification ([7]; basal (unstimulated) state): 7.1 ± 0.7 s | Modification rate [8]: 0.24 s⁻¹
SMILES: C[N+](C)(C)CCSS(C)(=O)=O.[Cl-] [MTS-ET]
effect of MTS-ET on channel currents ([1]; currents activated by 2-APB or oleoyl-CoA): complete and irreversible current inhibition | effect of MTS-ET on channel currents ([7]; TALK-2 Q266C): mono-exponential and irreversible current activation

Fold Rb+ activation [2]: 8.30 fold | Fold Rb+ activation [3]: 9.03 fold
SMILES: [Rb+] [Rb^+]

Fold activation 50 µM BL-1249 ([2]; 50 µM): 77.17 fold | Fold activation 50 µM BL-1249 ([3]; 50 µM): 94.95 fold
SMILES: c1ccc(-c2nn[nH]n2)c(Nc2cccc3c2CCCC3)c1 [BL-1249]
